Experimental data taken from patent US12059453B2, “Blood plasma fractions for use in muscle regeneration” (Alkahest, Inc., priority 2019, dated 2024).

Columns and labels:
tibialis anterior muscle = test: Muscle recovery in barium chloride induced injury model, twitch force; format: in vivo, C57BL/6 mice; conditions: day 17, 7 consecutive days i.v., compared to control vehicle, p<0.05
Procedure: FIG. 17A is a representation of an experimental protocol to investigate muscle recovery from an injury using different treatments. To induce muscle injury in vivo, C57BL/6 mice were anesthetized by isoflurane inhalation. At day 2 of test article dosing, left tibialis anterior muscles were injected with 50 μL of BaCl2 solution (Sigma-Aldrich B0750, 1.2% in sterile 0.9% NaCl) throughout the length of the tibia with a 30-gauge insulin syringe. Right tibialis anterior muscles were injected with 50 μL of saline as contralateral uninjured controls.
Left hindlimbs were wrapped with 2 layers of surgical tape and sports tape (Durapore 3M 1538-2 and Hampton Adams 8542028768) during the immobilization phase for 10 days and unwrapped during the recovery phase for 10 days. […] Animals were monitored daily for toe circulation and tape integrity.
The hindlimb of each anesthetized mouse was prepare for torque measurements above the ankle as described previously (Gerlinger-Romero F, et al., J. Vis. Exp. 58696 (2019), doi:10.3791/58696)). Twitch force and tetanus force were recorded with the settings as described previously. […] Both the left and hind limbs were recorded prior to dosing for baseline measurements, and values at the end of the study (day 17) compared to the initial readings (day 0). […]

C2C12 cells = test: Lactate production in C2C12 myotubes; format: cell-based; conditions: 5 mg/mL (IV-1 paste 0.25, 2.5 and 5 mg/mL), 2% horse serum, versus untreated control
Procedure: Lactate is known to promote myoblast differentiation and myotube hypertrophy (See, e.g. Tsukamoto S et al., Int. J. Molec. Sci. 19:3649 (2018)). Thus, measuring lactate production in myoblasts can be an indicator of both differentiation and growth in muscle. C12C2 myoblasts were differentiated to myotubes for 5 days in vitro in 2% horse serum (HS) differentiation medium. At day 5, various treatments were added to the cells. Based on the assessed EC50 values by glucose utilization the plasma fractions were added at 5 mg/mL to the media, except for IV-1 paste which was added at three different concentrations (0.25, 2.5, and 5 mg/mL). Also at day 5, positive control metformin was added (1 mM). At day 6, the cells were again treated with metformin and oligomycin (250 nM) as positive controls and 2-Deoxy-D-Glucose (2-DG, 100 nM) as negative control for either three (3) hours or five (5) hours (FIGS. 21A and 21B, respectively). After 3 or 5 hours, the media was deproteinized and subsequently, the amount of lactate produced was measured by an enzymatic reaction.

Substance: rhAlbumin: recombinant human albumin
- twitch force, maximal torque (tibialis anterior muscle): failed to produce a change maximal torque that was significantly increased
- lactate production (C2C12 cells; 3 hours): no increase in lactate production
- lactate production (C2C12 cells; 5 hours): no increase in lactate production
